According to PubChem BioAssay (NCI):
Some results for these compounds are left out of this collection, so the calls shown say nothing about other tests.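 Compound exposure: 48 hours, 5 concentrations, 96-well plates. Definition used: TGI = concentration required for complete inhibition of growth.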

Tests used:
Assay in all cases: inhibition of tumour cell growth, NCI panel, 48 h
U251 CNS = tested on: U251 CNS
SF-295 CNS = tested on: SF-295 CNS
SF-539 CNS = tested on: SF-539 CNS
RPMI-8226 leukemia = tested on: RPMI-8226 leukemia
TK-10 renal = tested on: TK-10 renal
HCT-15 colon = tested on: HCT-15 colon
IGROV1 ovarian = tested on: IGROV1 ovarian
A498 renal = tested on: A498 renal
SK-MEL-28 melanoma = tested on: SK-MEL-28 melanoma
OVCAR-8 ovarian = tested on: OVCAR-8 ovarian
LOX IMVI melanoma = tested on: LOX IMVI melanoma
SK-MEL-2 melanoma = tested on: SK-MEL-2 melanoma
HOP-62 NSCLC = tested on: HOP-62 NSCLC
NCI-H522 lung = tested on: NCI-H522 lung
HOP-92 NSCLC = tested on: HOP-92 NSCLC
CAKI-1 renal = tested on: CAKI-1 renal
SN12C renal = tested on: SN12C renal
MDA-MB-435 = tested on: MDA-MB-435
MDA-N = tested on: MDA-N
OVCAR-5 ovarian = tested on: OVCAR-5 ovarian
ACHN renal = tested on: ACHN renal
T-47D breast = tested on: T-47D breast
NCI-H460 lung = tested on: NCI-H460 lung
OVCAR-4 ovarian = tested on: OVCAR-4 ovarian
SNB-19 CNS = tested on: SNB-19 CNS
K-562 leukemia = tested on: K-562 leukemia
786-0 renal = tested on: 786-0 renal
NCI/ADR-RES ovarian = tested on: NCI/ADR-RES ovarian
PC-3 prostate = tested on: PC-3 prostate
SK-MEL-5 melanoma = tested on: SK-MEL-5 melanoma
A549 NSCLC = tested on: A549 NSCLC
MALME-3M melanoma = tested on: MALME-3M melanoma
BT-549 breast = tested on: BT-549 breast
NCI-H23 lung = tested on: NCI-H23 lung
KM12 colon = tested on: KM12 colon
M14 melanoma = tested on: M14 melanoma
HL-60(TB) leukemia = tested on: HL-60(TB) leukemia
HT29 colon = tested on: HT29 colon
HS 578T breast = tested on: HS 578T breast
SF-268 CNS = tested on: SF-268 CNS
MDA-MB-231 breast = tested on: MDA-MB-231 breast
EKVX NSCLC = tested on: EKVX NSCLC
RXF 393 renal = tested on: RXF 393 renal
SW-620 colon = tested on: SW-620 colon
SR leukemia = tested on: SR leukemia
MOLT-4 leukemia = tested on: MOLT-4 leukemia
UO-31 renal = tested on: UO-31 renal
CCRF-CEM leukemia = tested on: CCRF-CEM leukemia
UACC-257 melanoma = tested on: UACC-257 melanoma
COLO 205 colon = tested on: COLO 205 colon
UACC-62 melanoma = tested on: UACC-62 melanoma
DU-145 prostate = tested on: DU-145 prostate
NCI-H226 lung = tested on: NCI-H226 lung
HCT-116 colon = tested on: HCT-116 colon
MCF7 breast = tested on: MCF7 breast
SNB-75 CNS = tested on: SNB-75 CNS
SK-OV-3 ovarian = tested on: SK-OV-3 ovarian
OVCAR-3 ovarian = tested on: OVCAR-3 ovarian

`CCC1C(OC(=O)C(O)(c2ccccc2)c2ccccc2)C(C)(C)C1N1CCCCC1` (stereo not drawn) was tested, and the TGI (U251 CNS) was > 100 µM, the TGI (SF-295 CNS) was > 100 µM and the TGI (SF-539 CNS) was > 100 µM. The TGI (RPMI-8226 leukemia) was > 100 µM, the TGI (TK-10 renal) was > 100 µM and the TGI (HCT-15 colon) was > 100 µM. For the same compound, the TGI (IGROV1 ovarian) was > 100 µM, the TGI (A498 renal) was > 100 µM and the TGI (SK-MEL-28 melanoma) was > 100 µM. For the same compound, the TGI (OVCAR-8 ovarian) was > 100 µM, the TGI (LOX IMVI melanoma) was > 100 µM and the TGI (SK-MEL-2 melanoma) was > 100 µM. The TGI (HOP-62 NSCLC) was > 100 µM, the TGI (NCI-H522 lung) was 65.3 µM and the TGI (HOP-92 NSCLC) was > 100 µM. For the same compound, the TGI (CAKI-1 renal) was > 100 µM, the TGI (SN12C renal) was > 100 µM and the TGI (MDA-MB-435) was > 100 µM. For the same compound, the TGI (MDA-N) was > 100 µM, the TGI (OVCAR-5 ovarian) was > 100 µM and the TGI (ACHN renal) was > 100 µM. For the same compound, the TGI (T-47D breast) was > 100 µM, the TGI (NCI-H460 lung) was > 100 µM and the TGI (OVCAR-4 ovarian) was > 100 µM. For the same compound, the TGI (SNB-19 CNS) was > 100 µM, the TGI (K-562 leukemia) was > 100 µM and the TGI (786-0 renal) was > 100 µM. The TGI (NCI/ADR-RES ovarian) was > 100 µM, the TGI (PC-3 prostate) was > 100 µM and the TGI (SK-MEL-5 melanoma) was 46.2 µM. For the same compound, the TGI (A549 NSCLC) was > 100 µM, the TGI (MALME-3M melanoma) was > 100 µM and the TGI (BT-549 breast) was > 100 µM. The TGI (NCI-H23 lung) was > 100 µM, the TGI (KM12 colon) was > 100 µM and the TGI (M14 melanoma) was 31.1 µM. The TGI (HL-60(TB) leukemia) was > 100 µM, the TGI (HT29 colon) was 32 µM and the TGI (HS 578T breast) was > 100 µM. The TGI (SF-268 CNS) was > 100 µM, the TGI (MDA-MB-231 breast) was > 100 µM and the TGI (EKVX NSCLC) was > 100 µM. The TGI (RXF 393 renal) was 73.2 µM, the TGI (SW-620 colon) was > 100 µM and the TGI (SR leukemia) was > 100 µM. The TGI (MOLT-4 leukemia) was > 100 µM, the TGI (UO-31 renal) was > 100 µM and the TGI (CCRF-CEM leukemia) was > 100 µM. For the same compound, the TGI (UACC-257 melanoma) was 86.7 µM, the TGI (COLO 205 colon) was > 100 µM and the TGI (UACC-62 melanoma) was > 100 µM. The TGI (DU-145 prostate) was > 100 µM, the TGI (NCI-H226 lung) was 72.8 µM and the TGI (HCT-116 colon) was > 100 µM. For the same compound, the TGI (MCF7 breast) was > 100 µM, the TGI (SNB-75 CNS) was > 100 µM and the TGI (SK-OV-3 ovarian) was > 100 µM. The TGI (OVCAR-3 ovarian) was > 100 µM.
